Key:
Format in all cases: cell-based
KMS34 = experiment: In vitro cytotoxicity, KMS34; conditions: read-out: IC50 (in vitro toxicity); KMS34, Multiple Myeloma; 30 min treatment, 72 hours growth
794 = experiment: In vitro cytotoxicity, 794; conditions: read-out: IC50 (in vitro toxicity); 794, Atypical teratoid/Rhabdoid Tumor; 30 min treatment, 72 hours growth
MM1.S = experiment: In vitro cytotoxicity, MM1.S; conditions: read-out: IC50 (in vitro toxicity), Multiple Myeloma, 30 min treatment, 72 hours growth
HS27A = experiment: In vitro cytotoxicity, HS27A; conditions: read-out: IC50 (in vitro toxicity), Multiple Myeloma, 30 min treatment, 72 hours growth
U266 = experiment: In vitro cytotoxicity, U266; conditions: read-out: IC50 (in vitro toxicity); U266, Multiple Myeloma; 30 min treatment, 72 hours growth
D283 = experiment: In vitro cytotoxicity, D283; conditions: read-out: IC50 (in vitro toxicity); D283, Medulloblastoma; 30 min treatment, 72 hours growth
AMO1 = experiment: In vitro cytotoxicity, AMO1; conditions: read-out: IC50 (in vitro toxicity); AMO1, Multiple Myeloma; 30 min treatment, 72 hours growth
KMS11 = experiment: In vitro cytotoxicity, KMS11; conditions: read-out: IC50 (in vitro toxicity); KMS11, Multiple Myeloma; 30 min treatment, 72 hours growth
MV411 = experiment: In vitro cytotoxicity, MV411; conditions: read-out: IC50 (in vitro toxicity); MV411, Acute Myeloid Leukemia; 30 min treatment, 72 hours growth
DBRTG = experiment: In vitro cytotoxicity, DBRTG; conditions: read-out: IC50 (in vitro toxicity), Glioblastoma, 30 min treatment, 72 hours growth
Raji = experiment: In vitro cytotoxicity, Raji; conditions: read-out: IC50 (in vitro toxicity), Lymphoma, 30 min treatment, 72 hours growth

SMILES	IC50 (KMS34)	IC50 794	IC50 (MM1.S)	IC50 (HS27A)	IC50 (U266)	IC50 (D283)	IC50 (AMO1)	IC50 (KMS11)	IC50 (MV411)	IC50 (DBRTG)	IC50 (Raji)
N[C@H](CC(=O)O)Cc1ccccc1N(CCCl)CCCl	> 100 µM	< 100 µM	< 100 µM	> 100 µM	< 100 µM	< 100 µM	> 100 µM	> 100 µM	< 100 µM	< 100 µM	< 100 µM
N[C@H](CC(=O)O)Cc1ccc(N(CCCl)CCCl)cc1	> 100 µM	–	–	–	–	< 100 µM	–	–	< 100 µM	< 100 µM	< 100 µM

Source: patent publication US10017459B2, “β-substituted β-amino acids and analogs as chemotherapeutic agents and uses thereof” (Quadriga Biosciences, Inc., priority 2015, dated 2018)
